# Test results from patent publication EP4834881A1, “QUINOLONE COMPOUNDS AND USE THEREOF” (dated 2026).
# The chains behind the UniProt entries cited, without tags or fusion partners.
# UniProt Q96LB1, whole entry: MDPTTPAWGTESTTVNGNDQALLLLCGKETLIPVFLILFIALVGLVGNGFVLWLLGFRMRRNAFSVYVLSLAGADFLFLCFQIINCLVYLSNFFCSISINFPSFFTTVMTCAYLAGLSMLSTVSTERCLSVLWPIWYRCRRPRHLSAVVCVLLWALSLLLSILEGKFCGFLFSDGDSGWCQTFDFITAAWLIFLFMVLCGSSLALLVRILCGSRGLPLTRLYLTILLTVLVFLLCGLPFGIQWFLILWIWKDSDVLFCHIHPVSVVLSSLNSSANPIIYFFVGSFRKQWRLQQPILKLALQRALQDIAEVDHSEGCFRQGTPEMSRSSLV
# How the values were obtained:
# BALB/c mice [1] = test: Urticaria model: anti-dinitrophenyl antibody sensitization and dinitrofluorobenzene challenge; number of wheals, serum IgE and histamine (ELISA); conditions: once daily, 6 days, mean ± SEM
# Experimental: Experimental animals: BALB/c mice, from Hangzhou Ziyuan Laboratory Animal Technology Co., Ltd
# After random grouping, the back of the mice was shaved in advance, with a shaving area of about 2 cm × 2 cm. Except for the normal control group, mice in the remaining groups were sensitized via tail vein injection of an anti-dinitrophenyl monoclonal antibody (Supplier: Sigma-Aldrich, Lot No.: 0000241402) (0.2 ng/mL) at a dose of 0.5 mL per mouse. After 24 h, the mice in each sensitization modeling group were challenged by topically applying 50 µL of 0.15% dinitrofluorobenzene (Supplier: Shanghai Macklin, Lot No.: C14969320) to the dorsal side of both ears. The normal control group was injected and topically applied with normal saline under the same conditions.
# The administration regimen for the mouse urticaria model was as follows (the normal control group and the model control group were administered with vehicle alone under the same conditions) (once daily):
# Mouse IgE ELISA detection kit: purchased from Shanghai Enzyme-linked Biotechnology Co., Ltd., Lot No.: ml1037602.
# Mouse histamine ELISA detection kit: purchased from Shanghai Enzyme-linked Biotechnology Co., Ltd., Lot No.: ml1001877.
# Microplate reader, manufacturer BioTek, model: Epoch.
# C57BL/6 mice = test: Inflammatory bowel disease model: 3% DSS drinking water, DAI score; conditions: mean ± SEM
# Experimental: Experimental animals: C57BL/6 mice, from Guangdong Vital River Laboratory Animal Technology Co., Ltd.
# C57BL/6 mice were used. 3% DSS (Dextran Sulfate Sodium) (Supplier: MPBIO, Lot No.: YD11024) in water was prepared as drinking water for the mice.
# During the experiment, the animals were weighed at a fixed time daily, and their status (including feces, mortality) was observed. The efficacy was evaluated by the DAI score. The details of the DAI scoring criteria are as follows: 0 point for normal stool, 1 point for soft but formed stool, 2 points for soft stool, 3 points for soft and wet stool, 4 points for loose stool; 0-1 point for no occult blood, 2 points for occult blood positive, 3 points for visible blood in stool, 4 points for severe fecal blood; 0 point for no weight loss or weight gain, 1 point for weight loss of 1%-5%, 2 points for weight loss of 6%-10%, 3 points for weight loss of 11%-15%, 4 points for weight loss > 15%. The sum of the scores for 3 items is the total DAI score, and the weighing and scoring were carried out every other day. […] The DAI scores are shown in Table 5, and the data are presented as mean + standard error of the mean (SEM): Table 5
# human MRGPRX2 = human MRGPRX2 (Homo sapiens, UniProt Q96LB1); test: In vitro target binding assay: BRET between MRGPRX2-Nluc and Venus-β-arrestin1 in transfected HEK-293T cells, antagonist mode against agonist R-ZINC-3573 (EC80); conditions: antagonism of agonist R-ZINC-3573 at EC80, net BRET
# Description: Bioluminescence Resonance Energy Transfer (BRET) is an important biophysical technique for monitoring molecular interactions, and has been widely used to study protein-protein interactions in living cells. This technique requires the relevant proteins to be linked to an energy donor (such as luciferase) and an acceptor (such as a fluorescent protein). When a relevant drug molecule interacts with the protein, the protein structure alters, causing a change in the distance between the energy donor and the energy acceptor. The luminescence energy induced by the chemical reaction is transferred to the corresponding acceptor, resulting in increased acceptor emission, and generating a BRET signal. In this work, a DNA-synthesized target human MRGPRX2 and a donor luciferase Nluc (NanoLuc®Promega) (Supplier: Beijing Tsingke, Lot No.: SZ0171228-1), as well as an acceptor fluorescent protein Venus and the relevant test protein, namely human β-arrestin1 (ARRB1) (Supplier: Guangzhou Dahong Biotechnology, Lot No. HY22694-4396), were utilized, and were inserted into the eukaryotic expression vector plasmid pcDNA3.1(+) (Supplier: Qiyun Bio, Lot No.: QY2310) as fusion genes via a Linker sequence (GGSG). The cell line selected for the experiment was human embryonic kidney cells HEK-293T. The human embryonic kidney cell line HEK-293T was routinely cultured in 10 cm cell culture dishes using complete culture medium consisting of high-glucose DMEM medium supplemented with 10% (V/V) fetal bovine serum. Cells were seeded at 2×10^6 cells/10 cm dish on the first day of culture, and passaged every 72 h with the same number of cells. One day prior to transfection, cells were resuspended, counted, and seeded at a density of 2×10^6 cells/6 cm dish or 4×10^6 cells/10 cm dish. Transfection was carried out 16-24 h after seeding. Plasmids constructed with the fusion protein gene were transfected into the expression cell line, and the transfected cells were cultured under appropriate conditions for a period of time to allow sufficient expression of the fusion proteins. Transfection was performed by encapsulating plasmid DNA with PEI reagent, and the encapsulation process should to be carried out in Opti-MEM medium. The ratio of plasmid, PEI (Supplier: Yeasen Biotechnology, Lot No.: WP5430010), and Opti-MEM (Supplier: Gibco, Lot No.: 2883564) was 1:4:14 (W: W: V). The encapsulated plasmid was added to an appropriate amount of complete culture medium, amd gently mixed, which was then used to replace the existing culture medium of the previously plated cells. Cells were harvested 24 h after transfection. Subsequently, cells were resuspended using HBSS (Source: Biosharp, Lot No.: 24179687) and counted with a cell counter. The cells were diluted to a density of (3~5) ×10^5 cells/mL, and then seeded into a flat-bottom white 96-well microplate at 100 µ L/well, resulting in (3~5) ×10^4 cells per well. In each well, 10 µ L of antagonist compounds diluted with HBSS a different concentrations were added firstly, then the agonist compound at a specific concentration (EC80) was added. After reacting for 2 min, the substrate Furimazine (Supplier: TargetMol, Lot No.: 362434) at a final concentration of 10 µM was added. After reacting for another 2 min, the 96-well plate was placed in a PHERAstar FSX microplate reader (Supplier: BMG Labtech) to simultaneously measure the readings at wavelengths of 440 nm and 530 nm. Based on the fluorescence readings at 440 nm and 530 nm, the Ratio and net BRET were calculated. Ratio = Em530 nm / Em440 nm, and net BRET = Ratio co-transfection - Ratio single-transfection. The calculated net BRET values were inputted into GraphPad Prism 9, and curve fitting via nonlinear regression (four-parameter equation) and IC50 calculation were performed.
# BALB/c mice [2] = test: Asthma model: IgE assay (ELISA) in peripheral blood, alveolar lavage fluid and lung tissue; conditions: 5mg/kg PO, 7 days, mean ± SEM
# Experimental: (§1) Experimental animals: BALB/c mice, from Guangdong Vital River Laboratory Animal Technology Co., Ltd.
# (§2) Modeling was initiaed on the day of grouping, which was designated as M1. Except for the normal group, mice in all modeling groups were intraperitoneally injected with a sensitization solution of (500 µg OVA (Ovalbumin) (Supplier: Shanghai Macklin, Lot No.: C16255388) mixed with 5 mg aluminum hydroxide/mL) per mouse, while the normal control group was given an equal volume of sterile PBS solution. The injection cycle was M1, M7, and M14. Starting from M21, challenge was carried out by aerosolization once daily for 7 consecutive days. The challenge solution was a 20 mg/mL OVA (Ovalbumin) solution, and each aerosolization challenge lasted for 30 min. The normal control group was not subjected to aerosolization.
# (§3) Administration was initiated on day M21, which was designated as D1, and was performed once daily for 7 consecutive days. The normal control group and the model control group were administered with vehicle alone under the same conditions. The administration regimen for the mouse asthma model was as follows:
# Prior to necropsy, blood was collected from the eyeball. The collected mouse blood was then centrifuged at 1800 r/min at 4 °C for 15 min, and the supernatant serum was aliquoted and stored at -80 °C for testing. At the same time, alveolar lavage fluid and lung tissues were collected. The IgE levels in the above three samples was detected using an ELISA method (Supplier: Shanghai Enzyme-linked Biotechnology Co., Ltd., Lot No.: ml1037602). […] The results of the IgE levels in peripheral blood, lavage fluid, and lung tissue of each group are shown in Table 9, and the data are presented as mean ± standard error of the mean (SEM).
# BALB/c mice [3] = test: Asthma model: OVA sensitization and aerosol challenge, bronchoalveolar lavage fluid (BALF) cell differential count; conditions: 5mg/kg PO, 7 days, mean ± SEM
# Experimental: as §1, §2, §3
# The lungs were gently lavaged twice with normal saline to collect BALF. The recovered BALF was stored at 4 °C, and the cell differential count was detected using an automated hematology analyzer (Manufacturer: SYSMEX, Model: XN-1000). During the experiment, the asthma model mice developed typical symptoms, including shortness of breath, and ear and nose scratching, etc. […] The results of the bronchoalveolar lavage fluid cell differential count in each group are shown in Table 8, and the data are presented as mean ± standard error of the mean (SEM).
IC50 (human MRGPRX2),SMILES,Histamine Level (BALB/c mice [1]; 4mg/kg Topical application),IgE Level (BALB/c mice [1]; 4mg/kg Topical application),Histamine Level (BALB/c mice [1]; 25mg/kg Oral),IgE Level (BALB/c mice [1]; 25mg/kg Oral),"DAI score (C57BL/6 mice; D1, 20mg/kg QD p.o.)","DAI score (C57BL/6 mice; D2, 20mg/kg QD p.o.)","DAI score (C57BL/6 mice; D3, 20mg/kg QD p.o.)","DAI score (C57BL/6 mice; D4, 20mg/kg QD p.o.)","DAI score (C57BL/6 mice; D5, 20mg/kg QD p.o.)","DAI score (C57BL/6 mice; D6, 20mg/kg QD p.o.)",Alveolar Lavage Fluid IgE Concentration (BALB/c mice [2]; alveolar lavage fluid),Lung Tissue IgE Concentration (BALB/c mice [2]; lung tissue),Peripheral Blood IgE Concentration (BALB/c mice [2]; serum),Eosinophil Count (BALB/c mice [3]),Leukocyte Count WBC (BALB/c mice [3]),Lymphocyte Count (BALB/c mice [3]),Monocyte Count (BALB/c mice [3]),Neutrophil Count (BALB/c mice [3])
100 to 1000 nM,CCCCCCCNS(=O)(=O)c1ccc(-c2cc3c(cc2F)c(=O)c(C(=O)O)cn3CC)cc1,6.5 ± 1.0 ng/mL,14.9 ± 2.0 µg/mL,5.6 ± 1.0 ng/mL,10.5 ± 2.0 µg/mL,0.00±0.00,1.2±1.0,2.0±1.2,3.1±1.0,3.7±1.0,4.7±1.4,–,–,–,–,–,–,–,–
–,O=C(O)c1cn(C2CC2)c2nc(-c3ccc(S(=O)(=O)NCCO)cc3)c(F)cc2c1=O,–,–,–,–,–,–,–,–,–,–,6.3 ± 1.7 ng/mL,32.8 ± 4.1 ng/mL,11.9 ± 2.3 ng/mL,1.6±0.4*** 10^9/L,1.9±0.5*** 10^9/L,0.1±0.06** 10^9/L,0.08±0.02** 10^9/L,0.1±0.08** 10^9/L

# Marks after values point to notes of the source that are not given here.
